This is an account of results in PubChem BioAssay AID598 (SRMLSC, 2007).

Broadly, the viability is a read-out of living cells in per cent, often relative to untreated cells.

Only a part is listed here, and it is no random draw. Activity calls are given as the source filed them.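 How the source made its calls: active means viability at or below 40%; inactive means viability above 40%.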

This assay in a line: H69AR cell viability reduction – human, 86K library, primary screen (AID 598).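 Further: multidrug resistant small cell line overexpressing MRP-1 efflux transporter; 100% = mean luminescence of untreated control wells.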 To be noted: H69AR lung tumor viability, ATP luminescence, 72 h; at 10 µM; stronger effect = lower value.
As to `ClCCSc1nnc(-c2cccnc2)o1`, the viability was inactive: 93.1%. The result for `O=C(OC1CN2CCC1CC2)C12CC3CC(CC(C3)C1)C2` (configuration not stated) reads inactive: 96.3%; that for `CCC(C)N(CC(C)C)C(=S)SC(NC(C)=O)C(Cl)(Cl)Cl` (configuration not stated), inactive: 70.8%; that for `COP1(=S)c2c(C)nn(CCC#N)c2N=C(c2ccc(F)cc2)N1C` (configuration not stated), inactive: 62%. As for `O=C(COc1ccccc1)OC1CN2CCC1CC2` (configuration not stated), the viability is inactive: 104%. As to `O=P1(Nc2ncccn2)COc2ccccc2OC1`, the viability is inactive: 94.2%. The result for `Cc1ccc(OCC(=O)OC2CN3CCC2CC3)cc1` (configuration not stated) reads inactive: 94.1%; that for `O=P1(Nc2ccc(Br)cn2)COc2ccccc2OC1`, inactive: 98.3%.

`Cc1nn(-c2ccccc2)c2c1P(=O)(N1CCOCC1)N(C)C(c1ccccc1)=N2` (configuration not stated): the viability is inactive: 87.8%.

Turning to `CC1(CBr)Cn2c(nc3ccccc3c2=O)S1` (configuration not stated), the viability is inactive: 87.7%.

`O=P1(Nc2ccccn2)COc2ccccc2OC1`: the viability was inactive: 69.6%. The result for `Clc1n[nH]nc1-c1nn[nH][15n]1` reads inactive: 105%; that for `Cc1cccc(OCC(=O)OC2CN3CCC2CC3)c1` (configuration not stated), inactive: 95.3%.

Consider `CCOP1(=S)c2c(C)nn(CCC#N)c2N=C(c2ccc(F)cc2)N1C` (configuration not stated), for which the viability was inactive: 66.7%. With `CCOP1(=S)c2c(C)nn(CCC#N)c2N=C(c2ccccc2F)N1C` (configuration not stated) the figure was inactive: 68.9%; with `COC(=O)c1cc2c(s1)N=C(c1ccccc1)N(C)P2(=O)N1CCOCC1` (configuration not stated), inactive: 85.2%. With `O=P1(Nc2nc3ccc(Cl)cc3s2)COc2ccccc2O1` (configuration not stated) the figure was inactive: 103%; with `O=P(Nc1nccs1)(c1ccccc1)c1ccccc1`, inactive: 88.4%. The result for `c1nnnn1CCn1cnnn1` reads inactive: 89.2%; that for `O=C(OC1CN2CCC1CC2)c1cccc(Cl)c1` (configuration not stated), inactive: 95.6%. As for `CC1CCN(C(=O)Oc2c(Cl)cc(Cl)c3cccnc23)CC1`, the viability was inactive: 83.9%. With `CCc1nc2c(n1)c1c(non1O)c1c2no[n+]1[O-]` the figure was active: 2.17%.

Regarding `O=[N+]([O-])c1cccc2n[nH]nc12`, the viability is inactive: 97.6%. As for `Oc1ccccc1CNc1ccccn1`, the viability was inactive: 98.8%.

As to `Cc1c2non([O-])c-2c(C)[n+](=O)[n+]1[O-]`, the viability is active: 0.46%. The result for `CN1CCCC(OC(=O)C(c2ccccc2)c2ccccc2)C1` (configuration not stated) reads inactive: 79.2%; that for `CCOP(=O)(Nc1ccccc1)OCC`, inactive: 94.6%.
